Target: Sodium-dependent serotonin transporter (Homo sapiens, UniProt P31645)

The chains behind the UniProt entries cited, without tags or fusion partners.
UniProt P31645, whole entry: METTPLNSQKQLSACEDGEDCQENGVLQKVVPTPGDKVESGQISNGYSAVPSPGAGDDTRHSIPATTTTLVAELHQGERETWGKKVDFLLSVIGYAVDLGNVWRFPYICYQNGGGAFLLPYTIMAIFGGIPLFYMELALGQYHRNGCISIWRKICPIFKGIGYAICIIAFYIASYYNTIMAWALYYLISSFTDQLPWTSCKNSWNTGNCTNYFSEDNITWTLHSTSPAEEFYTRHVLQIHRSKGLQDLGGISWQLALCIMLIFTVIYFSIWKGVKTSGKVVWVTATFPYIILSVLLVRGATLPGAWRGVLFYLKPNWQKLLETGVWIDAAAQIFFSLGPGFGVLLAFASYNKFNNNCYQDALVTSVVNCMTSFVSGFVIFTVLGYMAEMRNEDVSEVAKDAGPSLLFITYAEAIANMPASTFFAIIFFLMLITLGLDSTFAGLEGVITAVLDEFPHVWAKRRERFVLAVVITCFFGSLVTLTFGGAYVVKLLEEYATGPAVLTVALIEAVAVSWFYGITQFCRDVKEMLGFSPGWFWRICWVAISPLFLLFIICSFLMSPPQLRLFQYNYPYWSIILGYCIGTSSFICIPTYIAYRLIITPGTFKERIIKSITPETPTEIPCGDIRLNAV

## N[C@H]1CC[C@H](c2ccc(Cl)c(Cl)c2)c2ccccc21
  IC50: 14 nM

Source: ChEMBL document CHEMBL4219032, “Triple Reuptake Inhibitors as Potential Therapeutics for Depression and Other Disorders: Design Paradigm and Developmental Challenges” (J Med Chem, 2018)
